Measured values reported in publication PMC12668310, “High‐Throughput Synthesis and Screening of a Cyanimide Library Identifies Selective Inhibitors of ISG15‐Specific Protease mUSP18” (Angewandte Chemie (International Ed. in English), 2025).

Biological target: T1, mUSP18 (Mus musculus, UniProt Q9WTV6)
T1 construct: (46-368); His-tag (N); made in house
T1 sequence (Q9WTV6 46-368): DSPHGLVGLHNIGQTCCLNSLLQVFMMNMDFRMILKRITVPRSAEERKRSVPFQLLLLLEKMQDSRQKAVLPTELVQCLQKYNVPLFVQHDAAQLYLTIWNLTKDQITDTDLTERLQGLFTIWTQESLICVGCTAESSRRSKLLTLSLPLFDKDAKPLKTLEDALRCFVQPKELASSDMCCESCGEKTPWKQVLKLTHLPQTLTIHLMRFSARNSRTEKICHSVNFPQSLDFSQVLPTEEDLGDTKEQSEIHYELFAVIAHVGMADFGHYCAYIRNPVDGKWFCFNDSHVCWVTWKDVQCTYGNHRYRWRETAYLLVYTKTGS
Experiment: High-throughput screening, ISG15ct-RhoMP, single dose 1.25 µM
Type: biochemical, murine

CCCCNc1ccc(C(=O)O)cc1 [CA047]
inhibition at 1.25 µM (read-out: %inh CA + DIC/HOBT): 40.1% | inhibition at 1.25 µM (read-out: %inh CA only): 2.72%

Like-named read-outs stand apart in the source and are kept apart here.
